## Membrane permeability of cyclic peptides

Values of Townsend et al. 2020, doi:10.26434/chemrxiv.13335941.v1, as listed in CycPeptMPDB.

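Lipid, pH, incubation time, direction and concentration are not recorded in the data file. The list need not hold all peptides of the study. Entries at the database's floor value (log10 P of -10) are not listed.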

PAMPA is the parallel artificial membrane permeability assay, which has no cells and reads passive diffusion.
Permeability is given as log10 of P in cm/s; higher (less negative) is more permeable.

{"smiles": "CC(C)C[C@@H]1NC(=O)[C@@H](C)N(C)C(=O)[C@H](Cc2ccccc2)NC(=O)[C@@H](CC(C)C)NC(=O)[C@H]2CCCN2C(=O)[C@H](CC(C)C)NC1=O", "PAMPA (log10 cm/s)": "-6.41"}
{"smiles": "CC(C)C[C@H]1NC(=O)[C@H](C)NC(=O)[C@@H]2CCCN2C(=O)[C@H](Cc2ccccc2)NC(=O)[C@@H](CC(C)C)NC(=O)[C@H]2CCCN2C(=O)C[C@H](Cc2ccccc2)NC1=O", "PAMPA (log10 cm/s)": "-6.56"}
{"smiles": "CC(C)C[C@H]1NC(=O)[C@@H](C)N(C)C(=O)[C@H]2CCCN2C(=O)[C@H](Cc2ccccc2)NC(=O)[C@H](CC(C)C)N(C)C(=O)[C@H]2CCCN2C(=O)[C@@H](CC(C)C)NC1=O", "PAMPA (log10 cm/s)": "-5.92"}
{"smiles": "CC(C)C[C@@H]1NC(=O)[C@@H](CC(C)C)N(C)C(=O)C[C@H](Cc2ccccc2)NC(=O)[C@@H]2CCCN2C(=O)[C@H](Cc2ccccc2)NC(=O)[C@@H](CC(C)C)NC(=O)[C@H]2CCCN2C1=O", "PAMPA (log10 cm/s)": "-5.57"}
{"smiles": "CC(C)C[C@H]1C(=O)N(C)[C@@H](CC(C)C)C(=O)N2CCC[C@H]2C(=O)N(C)[C@@H](CC(C)C)C(=O)N[C@@H](Cc2ccccc2)C(=O)N2CCC[C@H]2C(=O)N[C@@H](Cc2ccccc2)CC(=O)N1C", "PAMPA (log10 cm/s)": "-5.42"}
{"smiles": "CC(C)C[C@@H]1NC(=O)C[C@H](Cc2ccccc2)NC(=O)[C@@H]2CCCN2C(=O)[C@H](Cc2ccccc2)NC(=O)[C@H](CC(C)C)N(C)C(=O)[C@@H]2CCCN2C(=O)C[C@H](Cc2ccccc2)NC1=O", "PAMPA (log10 cm/s)": "-5.52"}
{"smiles": "CC(C)C[C@@H]1C(=O)N[C@H](CC(C)C)C(=O)N2CCC[C@@H]2C(=O)N(C)[C@@H](CC(C)C)C(=O)N[C@@H](Cc2ccccc2)C(=O)N2CCC[C@H]2C(=O)N[C@@H](C)C(=O)N1C", "PAMPA (log10 cm/s)": "-5.37"}
{"smiles": "CC(C)C[C@H]1NC(=O)[C@H]2CCCN2C(=O)[C@@H](CC(C)C)NC(=O)CN(Cc2ccccc2)C(=O)[C@H](C)NC(=O)[C@H](Cc2ccccc2)NC1=O", "PAMPA (log10 cm/s)": "-6.46"}
{"smiles": "CC(C)C[C@@H]1NC(=O)[C@H]2CCCN2C(=O)CN(Cc2ccccc2)C(=O)[C@@H](CC(C)C)N(C)C(=O)[C@@H](C)NC(=O)[C@H](Cc2ccccc2)NC1=O", "PAMPA (log10 cm/s)": "-6.10"}
{"smiles": "CC(C)C[C@@H]1NC(=O)[C@H](C)NC(=O)[C@H]2CCCN2C(=O)[C@H](Cc2ccccc2)NC(=O)[C@H](CC(C)C)N(C)C(=O)[C@@H]2CCCN2C(=O)C[C@H](Cc2ccccc2)NC1=O", "PAMPA (log10 cm/s)": "-5.82"}
{"smiles": "CC(C)C[C@H]1C(=O)N(Cc2ccccc2)CC(=O)N2CCC[C@H]2C(=O)N(C)[C@@H](CC(C)C)C(=O)N[C@@H](Cc2ccccc2)C(=O)N2CCC[C@H]2C(=O)N(C)[C@H](C)C(=O)N1C", "PAMPA (log10 cm/s)": "-5.22"}
{"smiles": "CC(C)C[C@@H]1NC(=O)[C@@H](CC(C)C)N(C)C(=O)[C@H](C)N(C)C(=O)[C@@H]2CCCN2C(=O)[C@H](Cc2ccccc2)NC(=O)CN(Cc2ccccc2)C(=O)[C@H]2CCCN2C1=O", "PAMPA (log10 cm/s)": "-5.70"}
{"smiles": "CC(C)C[C@@H]1C(=O)N2CCC[C@@H]2C(=O)N(C)[C@H](CC(C)C)C(=O)N[C@@H](Cc2ccccc2)C(=O)N2CCC[C@@H]2C(=O)N(C)[C@H](C)C(=O)N(Cc2ccccc2)CC(=O)N1C", "PAMPA (log10 cm/s)": "-5.62"}
{"smiles": "CC(C)C[C@H]1C(=O)N[C@@H](Cc2ccccc2)CC(=O)N2CCC[C@@H]2C(=O)N(C)[C@@H](CC(C)C)C(=O)N[C@@H](Cc2ccccc2)C(=O)N(C)[C@H](C)C(=O)N1C", "PAMPA (log10 cm/s)": "-5.19"}
{"smiles": "CC(C)C[C@@H]1NC(=O)[C@@H](CC(C)C)NC(=O)[C@@H](C)NC(=O)[C@H](Cc2ccccc2)NC(=O)[C@@H](CC(C)C)N(C)C(=O)[C@H]2CCCN2C1=O", "PAMPA (log10 cm/s)": "-5.38"}
{"smiles": "CC(C)C[C@H]1NC(=O)[C@H](C)N(C)C(=O)[C@H]2CCCN2C(=O)[C@H](Cc2ccccc2)NC(=O)CN(Cc2ccccc2)C(=O)[C@H]2CCCN2C(=O)[C@H](CC(C)C)N(C)C1=O", "PAMPA (log10 cm/s)": "-5.48"}
{"smiles": "CC(C)C[C@@H]1NC(=O)[C@@H]2CCCN2C(=O)CN(Cc2ccccc2)C(=O)[C@H](CC(C)C)NC(=O)[C@H](C)N(C)C(=O)[C@H]2CCCN2C(=O)[C@H](Cc2ccccc2)NC1=O", "PAMPA (log10 cm/s)": "-6.09"}
{"smiles": "CC(C)C[C@@H]1NC(=O)[C@H]2CCCN2C(=O)[C@@H](CC(C)C)NC(=O)[C@@H](CC(C)C)NC(=O)C[C@H](Cc2ccccc2)NC(=O)[C@@H]2CCCN2C(=O)[C@H](Cc2ccccc2)NC1=O", "PAMPA (log10 cm/s)": "-5.76"}
{"smiles": "CC(C)C[C@@H]1NC(=O)[C@@H](CC(C)C)NC(=O)[C@@H](C)N(C)C(=O)[C@H](Cc2ccccc2)NC(=O)CN(Cc2ccccc2)C(=O)[C@H]2CCCN2C1=O", "PAMPA (log10 cm/s)": "-5.28"}
{"smiles": "CC(C)C[C@H]1NC(=O)[C@@H](C)N(C)C(=O)[C@H](Cc2ccccc2)NC(=O)CN(Cc2ccccc2)C(=O)[C@@H]2CCCN2C(=O)[C@@H](CC(C)C)NC1=O", "PAMPA (log10 cm/s)": "-5.77"}
{"smiles": "CC(C)C[C@@H]1C(=O)N[C@H](CC(C)C)C(=O)N2CCC[C@H]2C(=O)N(C)[C@H](CC(C)C)C(=O)N[C@@H](Cc2ccccc2)C(=O)N2CCC[C@@H]2C(=O)N(C)[C@@H](C)C(=O)N1C", "PAMPA (log10 cm/s)": "-5.66"}
{"smiles": "CC(C)C[C@H]1C(=O)N[C@@H](Cc2ccccc2)CC(=O)N2CCC[C@H]2C(=O)N(C)[C@@H](CC(C)C)C(=O)N[C@@H](Cc2ccccc2)C(=O)N(C)[C@H](C)C(=O)N1C", "PAMPA (log10 cm/s)": "-5.10"}
{"smiles": "CCCN1CC(=O)N(Cc2ccccc2)CC(=O)N[C@@H](CC(C)C)C(=O)N2CCC[C@H]2C(=O)N(C)[C@@H](CC(C)C)C(=O)N[C@@H](Cc2ccccc2)C(=O)N2CCC[C@H]2C1=O", "PAMPA (log10 cm/s)": "-5.37"}
{"smiles": "CC(C)C[C@@H]1NC(=O)[C@H](C)NC(=O)[C@H](Cc2ccccc2)NC(=O)[C@H](CC(C)C)N(C)C(=O)[C@H]2CCCN2C(=O)[C@H](CC(C)C)NC1=O", "PAMPA (log10 cm/s)": "-6.04"}

The last 2 entries again:

compound	PAMPA (log10 cm/s)
CCCN1CC(=O)N(Cc2ccccc2)CC(=O)N[C@@H](CC(C)C)C(=O)N2CCC[C@H]2C(=O)N(C)[C@@H](CC(C)C)C(=O)N[C@@H](Cc2ccccc2)C(=O)N2CCC[C@H]2C1=O	-5.37
CC(C)C[C@@H]1NC(=O)[C@H](C)NC(=O)[C@H](Cc2ccccc2)NC(=O)[C@H](CC(C)C)N(C)C(=O)[C@H]2CCCN2C(=O)[C@H](CC(C)C)NC1=O	-6.04